Source: ChEMBL document CHEMBL3826965, “Synthesis and in vitro reactivation study of isonicotinamide derivatives of 2-(hydroxyimino)-N-(pyridin-3-yl)acetamide as reactivators of Sarin and VX inhibited human acetylcholinesterase (hAChE)” (2016)

Test: Acid dissociation constant, pKa of the compound in 5.97 to 8.05 pH of phosphate/8.44 to 9.12 pH of tris/9.52 to 10.48 pH of glycine-NaOH buffer by spectrophotometry

`NC(=O)c1cc[n+](CCCC[n+]2cccc(NC(=O)/C=N\O)c2)cc1.[Br-].[Br-]` showed a pKa of 8.25.

`NC(=O)c1cc[n+](CCC[n+]2cccc(NC(=O)/C=N\O)c2)cc1.[Br-].[Br-]` gave a pKa of 8.25.

`NC(=O)c1cc[n+](CC[n+]2cccc(NC(=O)/C=N\O)c2)cc1.[Br-].[Br-]` showed a pKa of 8.25.

In the case of `NC(=O)c1cc[n+](CCCCC[n+]2cccc(NC(=O)/C=N\O)c2)cc1.[Br-].[Br-]`, the pKa is reported as 8.25.
